Literature values, collected in patent US6632979B2, “Rodent HER2 tumor model” (Genentech, Inc., priority 2000, dated 2003).

System: breast cancer patients whose tumors overexpress HER2
Details: cited from earlier work

## HERCEPTIN®: humanized version of murine anti-HER2 antibody 4D5
Cobleigh et al. 1999
  complete responses, patients: 4%
  median duration of responses: 9.1 months
  partial responses, patients: 11%
ErbB2-overexpressing breast cancers, extensive prior anti-cancer therapy
  patients that fail to respond or respond only poorly: approximately 85%
Clinical trial preceding market approval
  median time to disease progression in all treated patients: 3.1 months
